High-throughput results: PubChem, ICCB-Longwood Screening Facility, Harvard Medical School
HCMV UL50-53 inh: inhibitors of HCMV UL50-UL53 interaction, biochemical, HTRF; 190,000 tested, 0.15% active; normalized percent inhibition; inhibition, % (concentration not given with the values); HCMV UL50-UL53 nuclear egress complex (human cytomegalovirus); in the data active = inhibition above about 27%, passing the limit was not always enough
GIV Gai3 FP: blocks GIV peptide binding to rat Galpha-i3; P08753; Galpha-i3/FITC-GIV peptide fluorescence polarization, 90 min; stronger effect = lower value; scaled: aluminum fluoride 0%, vehicle 100%; percent of control (FP), % (no concentration beside the values); 210,000 tested, 0.42% active; AID 1224905;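 active = replicate mean at 85% of control or lower, very high polarization wells dropped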;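 also: wells of about 15 µL received 100 nL stock; the first replicate is given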
GIV Gai FP conf: inhibitors of GIV peptide binding to Galpha-i3, confirmation, biochemical, fluorescence polarization, FITC-GIV peptide, rat Galphai3. shares compounds with GIV Gai3 FP. fluorescence polarization, mP at 100 µM. 580 tested, 38% active. active compounds read low;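 active = inhibition score of 15 or more, meaning 100 minus mean polarization as percent of control over three replicates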;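 also: lower mP means peptide displaced from Galphai3 so more inhibition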
GIV Gai AS conf: inhibitors of GIV binding to Galpha-i3, confirmation, orthogonal assay for GIV-Galpha-i inhibitor project, biochemical, AlphaScreen, His-GIV, GST-Galphai3; shares compounds with GIV Gai3 FP; purified proteins, 90 min; active compounds read low; AlphaScreen counts at 100 µM; 580 tested, 39% active; AID 1259351, 2017;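 active = inhibition score at or above a set limit, where the score is 100 minus the three-replicate mean percent of control signal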
* = called active by the depositor; . = not tested or not shown. Only some compounds are listed: those with a hit (about 0.46% of all), similar ones and a draw of the others.

#1 CCOC(=O)c1c(-c2ccc(Br)cc2)csc1/N=C/c1c(C)[nH]n(-c2ccccc2)c1=O
#2 c1nc2nc3c(c(Nc4ccc(N5CCOCC5)cc4)n2n1)CCC3
#3 COC(=O)C1CCN(c2ncnc3c2nnn3C)CC1
#4 CN1CCN(C(CNC(=O)C2CCCCC2)c2ccc(N(C)C)cc2)CC1 (stereo unspecified)
#5 CCCCN(Cc1ccco1)C1=NC(Cc2ccccc2)C(=O)N1c1ccc(C)cc1C (stereo unspecified)
#6 NC(=O)C[n+]1cccc2ccccc21
Screen / compound no. | 1 | 2 | 3 | 4 | 5 | 6
HCMV UL50-53 inh | -10 | -25 | . | -12 | -5 | .
GIV Gai3 FP | 75* | 100 | 104 | 102 | 101 | 80*
GIV Gai FP conf | 68 | . | . | . | . | 48*
GIV Gai AS conf | 41072 | . | . | . | . | 5016*

#7 NC(=O)C[n+]1ccc(/C=N/O)cc1
#8 CCOC(=O)C1=C(C)N=c2s/c(=C\c3cc([N+](=O)[O-])ccc3N3CCOCC3)c(=O)n2C1c1cccc(OC)c1 (stereo unspecified)
#9 CCOC(=O)C1=C(C)N=c2s/c(=C\c3cc([N+](=O)[O-])ccc3N3CCOCC3)c(=O)n2C1c1ccccc1 (stereo unspecified)
#10 CON1C(=O)CN(C(=O)c2ccccc2)C1(C)C
#11 O=C(CC1CCCCC1)Nc1ccc2nc3n(c(=O)c2c1)CCCCC3
#12 CCn1c2c(c3ccccc31)CN(C(=O)C1CCC1)CC2
Screen / compound no. | 7 | 8 | 9 | 10 | 11 | 12
HCMV UL50-53 inh | -80 | -21 | -3 | . | . | .
GIV Gai3 FP | 108 | 90 | 97 | 104 | 103 | 51*
GIV Gai FP conf | . | 63 | . | . | . | 20*
GIV Gai AS conf | . | 56560 | . | . | . | 14471*

#13 CCn1c(C)c(CN2CCC(C(=O)N3CCCC3)CC2)c2ccccc21
#14 Cc1ccc(C(=O)O)cc1Nc1nc2ccccc2n2cnnc12
#15 CCOC(=O)c1ccc(Nc2nc3ccccc3n3cnnc23)cc1
#16 Nc1ccc2nsnc2c1
#17 Nc1nnc(-c2ccc3nsnc3c2)o1
#18 CCOC(=O)C(Cc1ccc(O)cc1)NS(=O)(=O)c1ccc2c(c1)C(=O)c1ccccc1C2=O (stereo unspecified)
Screen / compound no. | 13 | 14 | 15 | 16 | 17 | 18
HCMV UL50-53 inh | . | -3 | 0 | 96* | 2 | .
GIV Gai3 FP | 102 | 76* | 103 | 46* | 106 | 101
GIV Gai FP conf | . | 43* | . | 5.4* | . | .
GIV Gai AS conf | . | 18787* | . | 3926* | . | .

#19 CCOC(=O)C(Cc1ccc(O)cc1)NC1=CC(=O)C(=O)c2ccccc21 (stereo unspecified)
#20 Cc1ccc(C)c(CNS(=O)(=O)c2cc(-c3csc(C)n3)sc2C)c1
#21 COc1ccc(NC(=S)Nc2ccc(N3CCOCC3)c3nonc23)cc1OC
#22 O=C(Nc1ccc(N2CCOCC2)c2nonc12)c1cccs1
#23 Cc1ccc(NC(=O)CSc2nccn2C)cc1
#24 O=C1/C(=C/c2ccncc2)CC/C1=C\c1ccncc1
Screen / compound no. | 19 | 20 | 21 | 22 | 23 | 24
HCMV UL50-53 inh | . | . | -63 | 4 | -2 | -34
GIV Gai3 FP | 82* | 110 | 72* | 110 | 101 | .
GIV Gai FP conf | 53* | . | 56* | . | . | .
GIV Gai AS conf | 32471 | . | 23631* | . | . | .

#25 CC1C/C(=C/c2ccncc2)C(=O)/C(=C/c2ccncc2)C1 (stereo unspecified)
#26 CCC(=O)Nc1cccc(-c2nc3ccccc3o2)c1
#27 O=C(Nc1cccc(-c2nc3ccccc3o2)c1)C(F)(F)F
#28 Cn1c(SCC(=O)NCC2CCCO2)nnc1-c1cc2ccccc2o1 (stereo unspecified)
#29 COc1ccc2c(c1)c(/C=C/c1nc3ccccc3c(=O)n1-c1ccccc1)c(C)n2C
#30 COc1ccc2c(c1)c(/C=C/c1nc3ccccc3c(=O)n1-c1cccc(C)c1)c(C)n2C
Screen / compound no. | 25 | 26 | 27 | 28 | 29 | 30
HCMV UL50-53 inh | . | -7 | -56 | . | -3 | -10
GIV Gai3 FP | 68* | . | 70* | 98 | 107 | 66*
GIV Gai FP conf | 44* | . | 75 | . | . | 72
GIV Gai AS conf | 8734* | . | 32747 | . | . | 43303

Reformatted as labelled records: entries from further up
[26] CCC(=O)Nc1cccc(-c2nc3ccccc3o2)c1
- HCMV UL50-53 inh = -7
- GIV Gai3 FP = .
- GIV Gai FP conf = .
- GIV Gai AS conf = .
[27] O=C(Nc1cccc(-c2nc3ccccc3o2)c1)C(F)(F)F
- HCMV UL50-53 inh = -56
- GIV Gai3 FP = 70*
- GIV Gai FP conf = 75
- GIV Gai AS conf = 32747
[28] Cn1c(SCC(=O)NCC2CCCO2)nnc1-c1cc2ccccc2o1 (stereo unspecified)
- HCMV UL50-53 inh = .
- GIV Gai3 FP = 98
- GIV Gai FP conf = .
- GIV Gai AS conf = .

Next part:
#31 CC(C)Nc1ncnc2scc(-c3ccccc3)c12
#32 O=C(O)c1cccc(Nc2ncnc3scc(-c4ccccc4)c23)c1
#33 N=C1SC2CS(=O)(=O)CC2N1CCc1ccccc1 (stereo unspecified)
#34 CCOC(=O)c1c(NC(=O)C(C)Sc2nnc(CNC(=O)c3ccc(OC)cc3)n2C)sc2c1CCCCC2 (stereo unspecified)
#35 COc1ccc(OC)c(C2C(C(=O)Nc3nc4ccc(Br)cc4s3)=C(C)NC3=C2C(=O)CC(C)(C)C3)c1 (stereo unspecified)
#36 COc1ccc(OC)c(C2C(C(=O)Nc3nc4ccccc4s3)=C(C)NC3=C2C(=O)CC(C)(C)C3)c1 (stereo unspecified)
Screen / compound no. | 31 | 32 | 33 | 34 | 35 | 36
HCMV UL50-53 inh | -14 | -11 | -7 | . | -8 | -2
GIV Gai3 FP | 104 | 72* | 99 | 107 | 88 | 105
GIV Gai FP conf | . | 82 | . | . | 63 | .
GIV Gai AS conf | . | 29755 | . | . | 54834 | .
